Laboratory results as given in patent EP4722215A1, “AMORPHOUS SUBSTANCE AND CRYSTAL OF DIOXOPIPERIDINE COMPOUND OR PHARMACEUTICALLY ACCEPTABLE SALT THEREOF, PREPARATION METHOD, AND USE” (Jiangsu Hengrui Pharmaceuticals Co., Ltd., priority 2023, dated 2024).

Assays:
[1] = Pharmacokinetic evaluation in cynomolgus monkeys, intragastric administration, plasma LC/MS/MS; assay type: in vivo; conditions: both sexes, cynomolgus monkey, po, i.g., 2.0 mg/kg, read-out: Apparent distribution volume Vz/F
Experimental: Cynomolgus monkeys were used as test animals.
Eight cynomolgus monkeys (half male and half female, provided by Shanghai Medicilon Inc.) were evenly divided into 2 groups.
Access to food and ad libitum access to water were given 3 h after administration.

in vivo = conditions: both, beagle, dog, plasma, po, 2 mg/kg

N#Cc1ccc(O[C@H]2CC[C@H](NC(=O)c3ccc(N4CCC(CN5CCN(c6cc7c(cc6F)C(=O)N(C6CCC(=O)NC6=O)C7=O)CC5)CC4)nn3)CC2)cc1Cl (some centres unmarked) [ARV-110]
Vd/F [1]: 165 L/kg | Vd/F (in vivo): 278 L/kg
